Yeast mating assay B: variants of the scFv Ab-14

Data: MIT Lincoln Laboratory AlphaSeq set, Li et al. 2023, doi:10.1038/s41467-023-39022-2, as distributed in FLAb.

Binding partner: SARS-CoV-2 spike HR2 peptide, sequence PDVDLGDISGINAS.

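The parent was found by panning a naive human phage display library on the peptide. These sequences belong to a second round, designed from the earlier measurements on random variants of the parent. Group labels follow the data file (Ctrl: baseline library sampled from a position-specific scoring matrix, with some repeated check sequences; En: ensemble of fine-tuned language models; GP: Gaussian process model; GPLM: also part of the Gaussian process libraries; HC: hill climbing; Gen: genetic algorithm; Gibbs: Gibbs sampling; a sequence that several methods proposed may carry one label only). The assay is AlphaSeq: two haploid yeast populations carry antibody and antigen on their surface. Pairs that bind mate more often; barcode pairs of the diploids are counted by sequencing. Read counts were normalised to the haploid input and turned into Kd by a linear fit to BCL2-family pairs of known affinity, for each replicate. Mating was done six times.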

Parent: Ab-14, a human scFv built as VH, three GGGGS repeats, VL. Only the CDRs of the light chain vary.
VH: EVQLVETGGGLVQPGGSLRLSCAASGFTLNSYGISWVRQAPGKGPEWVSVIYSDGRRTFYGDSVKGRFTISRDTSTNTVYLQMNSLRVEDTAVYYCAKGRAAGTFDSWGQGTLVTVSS
VL: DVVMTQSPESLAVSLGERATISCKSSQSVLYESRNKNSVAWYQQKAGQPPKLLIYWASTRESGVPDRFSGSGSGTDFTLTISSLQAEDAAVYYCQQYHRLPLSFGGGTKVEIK

The parent's light chain CDRs are KSSQSVLYESRNKNSVA, WASTRES, QQYHRLPLS; each variant's own CDRs replace them letter for letter.
Values are apparent Kd, the geometric mean of the replicates that gave a signal; lower means stronger binding.
An entry "nd" has no value in the source: the pair was not observed among the diploids in any replicate. This suggests poor binding but is not conclusive.
Nonspecific signal, from three strains lacking the peptide, appeared in 4% of pairings of all light chain designs, centred on 430 nM (5% of these signals below 38 nM); values are not corrected for it.

| # | CDR-L1 | CDR-L2 | CDR-L3 | group | Kd | seen in |
|---|---|---|---|---|---|---|
| 1 | HMSMLTLQGMRMRNSVA | QMTTREN | QQYDHLPLS | En_Gen | 11 nM | 6 of 6 |
| 2 | VFQQQWDGVTTTNSAVA | NVDERME | QQYNRLPLM | En_Gibbs | 2.2 nM | 6 of 6 |
| 3 | KLYDNVGTMSHNKQSIA | DMERRED | QQYHRLPLS | En_HC | 730 pM | 6 of 6 |
| 4 | KVYQSDLYESRNKNSVA | NASTRES | QQYHRLPLS | GP_Gen | 1.4 nM | 6 of 6 |
| 5 | TISQSTNMTSHGRNSVA | QAEMRES | QQYDRLPLS | En_HC | 31 nM | 6 of 6 |
| 6 | KVMGVNGVAMSTHDSIA | QEETRLE | QQYHRLPLS | En_Gen | 23 nM | 6 of 6 |
| 7 | KLSATSRYESQNKNSIA | EMSTRES | QCYHRLPLS | En_HC | 73 nM | 6 of 6 |
| 8 | KSSQSVLYESRNNNSVA | WAKTRES | QQYVRLPLS | Ctrl | 57 nM | 1 of 6 |
| 9 | KISRSDLYESRNKNSVA | SASTRES | QQYHRLPLS | Ctrl | 660 pM | 6 of 6 |
| 10 | KVSQSVLYESRMKNSVA | NASTRCS | QQYHRLPLE | GP_HC | 1.6 nM | 6 of 6 |
| 11 | KSSQSVLYESRNVNSLA | WASTRES | QQYHRLPLS | Ctrl | 42 nM | 6 of 6 |
| 12 | MITAVMYAYNGSFSSIA | DKTISVN | QQYHRLPLS | En_Gibbs | 6.1 nM | 6 of 6 |
| 13 | ILSQMLLTAGNKGNSVA | QANYRES | QQYHRLPLS | En_HC | 15 nM | 6 of 6 |
| 14 | KLWMSPLEGQSELQAVA | QAEVLRQ | QQYNMLPLS | En_Gibbs | 19 nM | 4 of 6 |
| 15 | LISGVWDYGSRNYNSVA | QTSTRES | QQYDRLPLV | En_HC | 17 nM | 6 of 6 |
| 16 | TLFEGRSYWDGDERNIA | NARMRED | QDYARLPLV | En_Gibbs | 33 nM | 6 of 6 |
| 17 | KVKQSVLYESRNKNSVA | EASTRES | QQYHRLPLS | GP_Gen | nd | 0 of 6 |
| 18 | KSPQSVLYESRNKNSVA | GASLRES | QQEHRLPLS | Ctrl | 26 nM | 3 of 6 |
| 19 | MISQLWNMGQFAINSVA | QASERSE | QQYDRLPLQ | En_Gen | 81 nM | 6 of 6 |
| 20 | DLTVSDNYGSQLENNIA | QGVCKCE | QQYSRLPLA | En_Gibbs | 34 nM | 5 of 6 |
| 21 | KFSQSVLYESRTGNSVA | NASTRES | QQYHRLPLS | GP_HC | 1.0 nM | 6 of 6 |
| 22 | KVEQSVLYESRNKNSVA | NGSTRES | QQYHRLPLS | GP_Gen | 360 pM | 6 of 6 |
| 23 | KSSPSVLLECRNKNQVA | WASTRES | QQYHRLPLS | Ctrl | nd | 0 of 6 |
| 24 | KLSQMLHVTGVHSNNVA | ELTMRGN | QQYHRLPLS | En_Gen | 8.6 nM | 6 of 6 |
| 25 | KGSQSVLYESRNKNSVA | WASTRES | QQYHRLPLS | Ctrl | 33 nM | 6 of 6 |
| 26 | KSSTSVLDESRNKNSVA | WASTRVS | QQCHRLHLS | Ctrl | nd | 0 of 6 |
| 27 | KSSQSVLYESRNKVSVA | SASTRES | QQYHRLPLS | Ctrl | 220 nM | 3 of 6 |
| 28 | KSSQSVLYESRNKNSVA | WGSTRES | QQYHRLPLS | Ctrl | 340 nM | 6 of 6 |
| 29 | MISQTFLIGMKAKNSVA | QTSTREE | QQYDRLPLS | En_HC | 11 nM | 5 of 6 |
| 30 | KSSQSPLYESRNKNSVA | WASTRED | QQYHRLPLS | Ctrl | 62 nM | 6 of 6 |
| 31 | MISDLLMYGSRNKNSVA | DLSTRGS | QQYHRLPLS | En_HC | 4.2 nM | 6 of 6 |
| 32 | KSSISVLKESRNKNSVA | WETTREQ | QAYHRLPLS | Ctrl | nd | 0 of 6 |
| 33 | KLEQSELYQSRNKQSVA | NASERES | QQYHRLPLS | GP_Gibbs | 6.1 nM | 6 of 6 |
| 34 | RMNKFMSGATEAKNSMA | GVEHRAR | QSYHRLPLS | En_Gibbs | 180 nM | 2 of 6 |
| 35 | KVLQSVLYESRDKNSVA | HASTRED | QQYHRLPLS | GP_HC | 1.5 nM | 6 of 6 |
| 36 | KFSQSEDYESRNKWSVA | NASTRMQ | QQYHRLPLS | GP_Gibbs | 870 pM | 6 of 6 |
| 37 | KSSQSVLYEESNKNSVA | DASTRES | QQYHRLPLS | Ctrl | 1.3 nM | 6 of 6 |
| 38 | KSSQSVLYESANCNSVA | WASTRES | QQYHRLPLS | Ctrl | 74 nM | 6 of 6 |
| 39 | KLSQSELYESRNKNSVA | NASQREM | QQYHRLPLS | GP_Gen | 760 pM | 6 of 6 |
| 40 | KLSLSVLLESRDVNAVA | EASTRES | QQYHRLPLS | GP_Gibbs | 700 pM | 6 of 6 |
| 41 | KLQWLWLYESRNKNSVA | NASTRES | QQYHRLPLS | GP_Gibbs | 2.1 nM | 6 of 6 |
| 42 | TISQSVLMTGLNRNSVA | QAEERIE | QQYHRLPLS | En_HC | 3.0 nM | 6 of 6 |
| 43 | KLSQSEMYESRNKNSVA | EASTRES | QQYHRLPLS | GP_Gen | 800 pM | 6 of 6 |
| 44 | KISQTVLYQGRLWNAVA | QMSTREN | QQYDRLPLS | En_HC | nd | 0 of 6 |
| 45 | KSGCGDLYESRNKNSVA | GASTRES | QQYHRLPLS | GP_HC | 140 nM | 1 of 6 |
| 46 | HMSAVTMMGMRQRNSVA | QMTMREN | QQYDRLPLA | En_Gen | 110 nM | 6 of 6 |
| 47 | TVSQVHEMLSRNKNSVA | DMNTREQ | QQYDRLPLS | En_HC | 1.7 nM | 6 of 6 |
| 48 | KLSQSVLYESRNKNSVA | DASTRCS | QQYHRLPLS | GP_Gen | 400 pM | 6 of 6 |
| 49 | MMSQVTGSGQRHRNNVA | QTSTREI | QQYDRLPLI | En_Gen | 6.4 nM | 6 of 6 |
| 50 | KSFQSELYESRNKNSVA | WASTRES | QGYHRLPLS | Ctrl | nd | 0 of 6 |
| 51 | KWSQSTLYESRNCNSVA | DASTRES | KQYHRLPLS | Ctrl | 2.8 nM | 6 of 6 |
| 52 | KLGQGVLYESRVKNSVA | GASTRES | QQYHRLPLS | GP_HC | 680 pM | 6 of 6 |
| 53 | KSTQSVLYEMRNKNSVA | WASTRES | QQYHRLPLS | Ctrl | 380 pM | 6 of 6 |
| 54 | KSSQSVLYESRNKISVA | WASTREW | QQYHRLPNS | Ctrl | nd | 0 of 6 |
| 55 | KSSQSVLYESRNKNSVA | DASTRES | QQYARLPLS | Ctrl | 4.4 nM | 6 of 6 |
| 56 | SMSWAHFNPDNWKNSIA | DATHVAY | QQYSRLPIT | En_Gibbs | 1.2 nM | 6 of 6 |
| 57 | ASSQSVLYESRNTNSVA | WASTRES | QQYHRLPLS | Ctrl | 130 nM | 1 of 6 |
| 58 | KLQQSELYESRNKNSVA | NASTREV | QQYHRLPLS | GP_Gen | 1.0 nM | 6 of 6 |
| 59 | KQSQENLYESRNKNSVA | DASTRES | QQYHRLPLS | GP_HC | 1.0 nM | 6 of 6 |
| 60 | KSSQSVLYESVNKNSVA | DASTRES | QQYHRLPLS | GPLM_HC | 1.2 nM | 6 of 6 |
| 61 | KLDQWVEMESRWKNSVA | SASQRFE | QQYHRLPLS | GP_Gibbs | 2.1 nM | 6 of 6 |
| 62 | NLSDGEMYENATRSHIA | DTSMRDF | QQYNRLPLD | En_Gibbs | 27 nM | 6 of 6 |
| 63 | KVSEFPRGLMSKQDSIA | DNVTRSN | QQYDRLPLS | En_Gen | 900 nM | 1 of 6 |
| 64 | KSSESVLYESNNKNSVA | WASTRES | QQYHHLPLS | Ctrl | 34 nM | 6 of 6 |
| 65 | KLGMTLNQLMHKKNNVA | DLVERAN | QQYFRLPLS | En_Gen | 950 pM | 6 of 6 |
| 66 | HIMKFMSQEGGARNNVA | GDTKLAQ | QHYHRLPLS | En_Gibbs | 74 nM | 3 of 6 |
| 67 | KITMSINLTFQASNNVA | EMATREQ | QQYNRLPLS | En_Gen | 9.2 nM | 6 of 6 |
| 68 | KSSQSVLMESRNKNSVA | WVSTRES | QQYHRLPLS | Ctrl | 170 nM | 4 of 6 |
| 69 | KVSQSWQYGSRNKQSVA | HASQRES | QQYHRLPLS | GP_Gibbs | 3.0 nM | 6 of 6 |
| 70 | KLSQSELYESRNKNSVA | NANQRES | QQYHRLPLS | GP_Gen | 910 pM | 6 of 6 |
| 71 | KVSISYLLESRNKNSVA | EASTREV | QQYHRLPLS | GP_HC | 530 pM | 6 of 6 |
| 72 | KVSQSVLYESVNKNSVA | WASTRES | QQYHRLMLS | Ctrl | nd | 0 of 6 |
| 73 | IISQSMLYESATHNSIA | QTETREE | QQYAHLPLI | En_HC | 9.8 nM | 6 of 6 |
| 74 | KSSQSDLYESRNKNSVA | GASTRES | QAYHRLPLS | GP_HC | 3.2 nM | 6 of 6 |
| 75 | IISQSVMGESRNKNSVA | QTSERNY | QQYDRLPLM | En_HC | 4.1 nM | 6 of 6 |
| 76 | KLSSITGTEKVHGNNVA | EMETRER | QQYNRLPLA | En_Gen | nd | 0 of 6 |
| 77 | TIGPYLMTESRNKNNVA | GMQTRER | QQYHRLPLS | En_HC | 9.1 nM | 6 of 6 |
| 78 | KSSQSVLYASRNKNSVA | AASTRES | QQYHRLPLS | Ctrl | 20 nM | 6 of 6 |
| 79 | KISQSVLYESRNKNAVA | DASTRES | QMYHWLPLS | GP_HC | 2.8 nM | 6 of 6 |

The opening 6 entries, copied out:

{"CDR-L1": "HMSMLTLQGMRMRNSVA", "CDR-L2": "QMTTREN", "CDR-L3": "QQYDHLPLS", "group": "En_Gen", "Kd": "11 nM", "seen in": "6 of 6"}
{"CDR-L1": "VFQQQWDGVTTTNSAVA", "CDR-L2": "NVDERME", "CDR-L3": "QQYNRLPLM", "group": "En_Gibbs", "Kd": "2.2 nM", "seen in": "6 of 6"}
{"CDR-L1": "KLYDNVGTMSHNKQSIA", "CDR-L2": "DMERRED", "CDR-L3": "QQYHRLPLS", "group": "En_HC", "Kd": "730 pM", "seen in": "6 of 6"}
{"CDR-L1": "KVYQSDLYESRNKNSVA", "CDR-L2": "NASTRES", "CDR-L3": "QQYHRLPLS", "group": "GP_Gen", "Kd": "1.4 nM", "seen in": "6 of 6"}
{"CDR-L1": "TISQSTNMTSHGRNSVA", "CDR-L2": "QAEMRES", "CDR-L3": "QQYDRLPLS", "group": "En_HC", "Kd": "31 nM", "seen in": "6 of 6"}
{"CDR-L1": "KVMGVNGVAMSTHDSIA", "CDR-L2": "QEETRLE", "CDR-L3": "QQYHRLPLS", "group": "En_Gen", "Kd": "23 nM", "seen in": "6 of 6"}

The authors averaged sequences with at least three values out of six and counted those with two or fewer as poor binders.
The range of this assay differs from that of the first round, and the authors advise against merging the two.